Antibody variant affinities, Ab-14 heavy chain, assay 1

Data: MIT Lincoln Laboratory AlphaSeq set, Engelhart et al. 2022, doi:10.1038/s41597-022-01779-4, as distributed in FLAb.

The target is the same throughout: PDVDLGDISGINAS, from the HR2 region of SARS-CoV-2 spike.

The variants keep the light chain, the linker and the frameworks of Ab-14 (scFv order VH, the linker GGGGSGGGGSGGGGS, VL).
VH: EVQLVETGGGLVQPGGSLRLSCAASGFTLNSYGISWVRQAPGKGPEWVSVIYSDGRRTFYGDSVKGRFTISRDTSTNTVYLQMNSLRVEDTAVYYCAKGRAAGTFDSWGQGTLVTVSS
VL: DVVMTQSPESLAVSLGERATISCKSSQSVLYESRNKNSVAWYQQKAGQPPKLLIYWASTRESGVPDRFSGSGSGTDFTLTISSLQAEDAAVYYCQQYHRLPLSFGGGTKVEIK

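Phage display of a naive human antibody library on the peptide gave the parent. The library (AAYL49) carries one to three amino acid substitutions per variant, with no insertions or deletions. In AlphaSeq, yeast of one mating type display the scFv and yeast of the other type display the target. Mating (16 h, 30 °C) was followed by selection of diploids and sequencing of their barcodes. A regression on co-assayed BCL2-family reference pairs converts the normalised counts of each replicate to an apparent Kd. Each pool was mated in three replicate cultures.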

Changes read parent residue, position, new residue, counted from the first residue of the VH shown. This list gathers variants with a substitution at T28 (VH, numbered from residue 1). Each Kd is an estimate from the mating assay, the geometric mean of the replicates in which the pair was seen; lower is stronger. "no signal" marks a missing value. The strain was present, yet no cells mated with the target were sequenced in any replicate, which points to weak or no binding. Parent in this assay: reference entry 4.4 nM, copy in this library 13 µM (one replicate of three). Background: pairings of library AAYL49 with three empty control strains gave a value in 15% of cases (median 11 µM, 5th percentile 680 nM). Values in that range, when seen in few replicates, are hard to tell from nonspecific mating. Also given: how often the same scFv was detected with the empty control strains.

For T28K/S53M/G61W, the assay gave no signal (0 of 3 replicates; controls 0 of 9). Variant T28N/F59P/S63L showed 30 µM (1 of 3 replicates; controls 1 of 9). For T28E/V50N, the assay gave 13 µM (1 of 3 replicates; controls 2 of 9). With T28Q/G33H/V50I the result was 250 µM (1 of 3 replicates; controls 1 of 9). Variant T28K/I34Q/T104C gave no signal (0 of 3 replicates; controls 2 of 9).

With T28Y/G55P the result was 390 nM (1 of 3 replicates; controls 0 of 9). With T28H/L29K/R56H the result was no signal (0 of 3 replicates; controls 0 of 9). Variant T28P/S31N/I51D showed 210 µM (1 of 3 replicates; controls 0 of 9). For T28I/G33M/Y60V, the assay gave no signal (0 of 3 replicates; controls 0 of 9). Variant T28F/V64Y/K65C showed 16 µM (1 of 3 replicates; controls 2 of 9).

Variant T28W/S63A/S107I gave 53 nM (3 of 3 replicates; controls 2 of 9). With T28P/T58D/T104M the result was no signal (0 of 3 replicates; controls 1 of 9). Variant T28K/T58E/G99T showed 31 µM (2 of 3 replicates; controls 1 of 9). With T28G/S107T the result was 2.8 nM (3 of 3 replicates; controls 0 of 9). With F27E/T28W/F59A the result was 2.7 nM (3 of 3 replicates; controls 1 of 9).

With T28A/N30T/S107R the result was 11 nM (3 of 3 replicates; controls 0 of 9). With T28L/L29A/R100Q the result was 320 nM (3 of 3 replicates; controls 0 of 9). With T28H/G61E/G99S the result was 8.9 nM (3 of 3 replicates; controls 1 of 9). Variant T28F/F105V showed 440 nM (2 of 3 replicates; controls 0 of 9). With T28C/I34K/V64Q the result was 64 µM (1 of 3 replicates; controls 0 of 9).

Variant T28P/R57D/D106S gave no signal (0 of 3 replicates; controls 0 of 9). Variant T28S/N30P/T104N showed 1.0 µM (1 of 3 replicates; controls 1 of 9). With T28M/L29E/I34R the result was no signal (0 of 3 replicates; controls 5 of 9). For T28D/G99R, the assay gave 23 µM (1 of 3 replicates; controls 1 of 9). With T28I/V64S/A101E the result was 110 nM (3 of 3 replicates; controls 4 of 9).

With T28G/Y32G/F105A the result was 18 µM (1 of 3 replicates; controls 2 of 9). Variant T28H/Y32K/Y52H gave no signal (0 of 3 replicates; controls 1 of 9). For T28Y/G33V, the assay gave no signal (0 of 3 replicates; controls 0 of 9). Variant T28P/G61K/G103W showed 33 nM (3 of 3 replicates; controls 0 of 9). Variant F27Q/T28F/K65A showed 2.9 µM (3 of 3 replicates; controls 2 of 9).

With T28G/Y32P/I51P the result was 97 µM (1 of 3 replicates; controls 0 of 9). Variant T28N/Y32F/I34E showed 19 µM (1 of 3 replicates; controls 2 of 9). With G26L/T28R/T104F the result was no signal (0 of 3 replicates; controls 0 of 9). Variant T28A/S63K/G103H gave 6.1 nM (3 of 3 replicates; controls 0 of 9). Variant T28Y/G33Y/R57P gave 14 µM (1 of 3 replicates; controls 0 of 9).

For T28S/S53K/G55E, the assay gave no signal (0 of 3 replicates; controls 0 of 9). Variant F27S/T28A/S31M gave 430 nM (3 of 3 replicates; controls 0 of 9). Variant T28G gave 19 nM (3 of 3 replicates; controls 0 of 9). Variant T28F/N30P gave 6.2 µM (3 of 3 replicates; controls 7 of 9). Variant T28F/V50T/Y52R showed no signal (0 of 3 replicates; controls 1 of 9).

For T28F/S63N, the assay gave 78 nM (3 of 3 replicates; controls 0 of 9). With T28H/L29A/G33I the result was 640 µM (1 of 3 replicates; controls 0 of 9). Variant T28W/A101P/G103V gave no signal (0 of 3 replicates; controls 3 of 9). With T28D/S53M the result was no signal (0 of 3 replicates; controls 0 of 9). With T28M/R100K/D106L the result was no signal (0 of 3 replicates; controls 0 of 9).

For T28S/L29I/R100E, the assay gave 1.2 nM (3 of 3 replicates; controls 6 of 9). For F27S/T28H, the assay gave no signal (0 of 3 replicates; controls 0 of 9). For T28M/Y32M/F105K, the assay gave 13 µM (1 of 3 replicates; controls 1 of 9). Variant G26Y/T28S/G99H showed 220 nM (1 of 3 replicates; controls 2 of 9). Variant T28A/R57L/T58M showed 170 µM (1 of 3 replicates; controls 0 of 9).

Variant T28H/V50S/R57E gave no signal (0 of 3 replicates; controls 2 of 9).

3 of these entries, quoted again:

changes,Kd,detected,empty controls
T28K/S53M/G61W,no signal,0/3,0/9
T28W/A101P/G103V,no signal,0/3,3/9
T28P/G61K/G103W,33 nM,3/3,0/9